Columns and labels:
[1] = biological target: Sodium channel protein type 9 subunit alpha (Homo sapiens, UniProt Q15858); assay: Inhibition of human Nav1.7 expressed in HEK293 cells assessed as inhibition of sodium current at holding potential of -125 mV measured for 3 to 5 mins by whole cell voltage clamp method; assay type: cell-based
[2] = biological target: Sodium channel protein type 5 subunit alpha (Homo sapiens, UniProt Q14524); assay: Inhibition of human Nav1.5 expressed in HEK293 cells assessed as inhibition of sodium current at holding potential of -125 mV measured for 3 to 5 mins by whole cell voltage clamp method; assay type: cell-based

Chains of the proteins cited; added tags and fusions are not shown.
UniProt Q15858, whole entry: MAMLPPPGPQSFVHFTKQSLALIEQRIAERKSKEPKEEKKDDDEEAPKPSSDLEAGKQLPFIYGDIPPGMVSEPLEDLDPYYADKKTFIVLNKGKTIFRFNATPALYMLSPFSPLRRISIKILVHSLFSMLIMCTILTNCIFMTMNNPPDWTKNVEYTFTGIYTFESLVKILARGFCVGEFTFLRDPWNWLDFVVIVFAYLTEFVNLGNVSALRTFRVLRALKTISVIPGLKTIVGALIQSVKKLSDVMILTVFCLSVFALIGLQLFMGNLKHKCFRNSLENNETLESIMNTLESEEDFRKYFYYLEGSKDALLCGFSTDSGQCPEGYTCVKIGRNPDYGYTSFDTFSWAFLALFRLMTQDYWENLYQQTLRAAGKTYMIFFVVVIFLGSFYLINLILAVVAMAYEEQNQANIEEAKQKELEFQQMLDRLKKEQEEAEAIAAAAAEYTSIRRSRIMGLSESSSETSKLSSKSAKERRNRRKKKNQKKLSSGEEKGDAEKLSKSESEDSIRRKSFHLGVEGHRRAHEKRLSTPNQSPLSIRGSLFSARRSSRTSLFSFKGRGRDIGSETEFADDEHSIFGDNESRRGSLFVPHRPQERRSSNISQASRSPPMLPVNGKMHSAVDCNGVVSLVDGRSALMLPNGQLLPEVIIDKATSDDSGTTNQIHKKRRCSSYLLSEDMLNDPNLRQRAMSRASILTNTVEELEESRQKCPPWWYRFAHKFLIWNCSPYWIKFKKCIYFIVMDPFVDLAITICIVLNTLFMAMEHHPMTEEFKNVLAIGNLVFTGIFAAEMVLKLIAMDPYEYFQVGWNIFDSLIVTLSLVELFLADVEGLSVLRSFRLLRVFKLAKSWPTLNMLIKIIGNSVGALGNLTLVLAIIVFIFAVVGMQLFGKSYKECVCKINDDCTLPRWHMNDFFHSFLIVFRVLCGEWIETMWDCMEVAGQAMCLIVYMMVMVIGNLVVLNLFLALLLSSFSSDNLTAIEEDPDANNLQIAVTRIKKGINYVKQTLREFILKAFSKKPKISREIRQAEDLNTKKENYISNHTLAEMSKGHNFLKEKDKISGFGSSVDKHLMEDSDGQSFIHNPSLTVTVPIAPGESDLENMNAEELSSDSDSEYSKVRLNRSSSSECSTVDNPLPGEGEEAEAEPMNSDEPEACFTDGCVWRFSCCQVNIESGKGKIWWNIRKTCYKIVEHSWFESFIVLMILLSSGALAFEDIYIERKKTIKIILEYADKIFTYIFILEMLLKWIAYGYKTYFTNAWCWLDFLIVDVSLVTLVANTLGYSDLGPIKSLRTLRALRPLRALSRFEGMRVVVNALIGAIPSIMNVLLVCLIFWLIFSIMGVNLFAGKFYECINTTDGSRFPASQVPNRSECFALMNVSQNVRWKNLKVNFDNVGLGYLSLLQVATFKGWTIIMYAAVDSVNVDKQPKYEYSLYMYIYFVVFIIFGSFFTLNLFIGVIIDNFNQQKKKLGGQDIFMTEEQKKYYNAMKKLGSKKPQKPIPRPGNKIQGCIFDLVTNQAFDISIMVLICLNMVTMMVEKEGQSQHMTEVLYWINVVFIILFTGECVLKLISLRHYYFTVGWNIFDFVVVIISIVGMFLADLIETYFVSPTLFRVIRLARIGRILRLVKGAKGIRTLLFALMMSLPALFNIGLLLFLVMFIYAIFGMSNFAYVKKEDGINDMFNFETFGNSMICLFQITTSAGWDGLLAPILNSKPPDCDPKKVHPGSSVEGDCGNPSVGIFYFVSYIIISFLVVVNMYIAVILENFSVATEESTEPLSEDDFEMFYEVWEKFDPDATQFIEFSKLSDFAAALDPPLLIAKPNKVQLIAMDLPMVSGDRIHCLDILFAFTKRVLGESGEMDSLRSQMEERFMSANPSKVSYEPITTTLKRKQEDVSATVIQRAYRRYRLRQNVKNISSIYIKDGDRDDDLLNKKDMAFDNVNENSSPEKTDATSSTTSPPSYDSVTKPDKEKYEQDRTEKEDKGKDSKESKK
UniProt Q14524, whole entry: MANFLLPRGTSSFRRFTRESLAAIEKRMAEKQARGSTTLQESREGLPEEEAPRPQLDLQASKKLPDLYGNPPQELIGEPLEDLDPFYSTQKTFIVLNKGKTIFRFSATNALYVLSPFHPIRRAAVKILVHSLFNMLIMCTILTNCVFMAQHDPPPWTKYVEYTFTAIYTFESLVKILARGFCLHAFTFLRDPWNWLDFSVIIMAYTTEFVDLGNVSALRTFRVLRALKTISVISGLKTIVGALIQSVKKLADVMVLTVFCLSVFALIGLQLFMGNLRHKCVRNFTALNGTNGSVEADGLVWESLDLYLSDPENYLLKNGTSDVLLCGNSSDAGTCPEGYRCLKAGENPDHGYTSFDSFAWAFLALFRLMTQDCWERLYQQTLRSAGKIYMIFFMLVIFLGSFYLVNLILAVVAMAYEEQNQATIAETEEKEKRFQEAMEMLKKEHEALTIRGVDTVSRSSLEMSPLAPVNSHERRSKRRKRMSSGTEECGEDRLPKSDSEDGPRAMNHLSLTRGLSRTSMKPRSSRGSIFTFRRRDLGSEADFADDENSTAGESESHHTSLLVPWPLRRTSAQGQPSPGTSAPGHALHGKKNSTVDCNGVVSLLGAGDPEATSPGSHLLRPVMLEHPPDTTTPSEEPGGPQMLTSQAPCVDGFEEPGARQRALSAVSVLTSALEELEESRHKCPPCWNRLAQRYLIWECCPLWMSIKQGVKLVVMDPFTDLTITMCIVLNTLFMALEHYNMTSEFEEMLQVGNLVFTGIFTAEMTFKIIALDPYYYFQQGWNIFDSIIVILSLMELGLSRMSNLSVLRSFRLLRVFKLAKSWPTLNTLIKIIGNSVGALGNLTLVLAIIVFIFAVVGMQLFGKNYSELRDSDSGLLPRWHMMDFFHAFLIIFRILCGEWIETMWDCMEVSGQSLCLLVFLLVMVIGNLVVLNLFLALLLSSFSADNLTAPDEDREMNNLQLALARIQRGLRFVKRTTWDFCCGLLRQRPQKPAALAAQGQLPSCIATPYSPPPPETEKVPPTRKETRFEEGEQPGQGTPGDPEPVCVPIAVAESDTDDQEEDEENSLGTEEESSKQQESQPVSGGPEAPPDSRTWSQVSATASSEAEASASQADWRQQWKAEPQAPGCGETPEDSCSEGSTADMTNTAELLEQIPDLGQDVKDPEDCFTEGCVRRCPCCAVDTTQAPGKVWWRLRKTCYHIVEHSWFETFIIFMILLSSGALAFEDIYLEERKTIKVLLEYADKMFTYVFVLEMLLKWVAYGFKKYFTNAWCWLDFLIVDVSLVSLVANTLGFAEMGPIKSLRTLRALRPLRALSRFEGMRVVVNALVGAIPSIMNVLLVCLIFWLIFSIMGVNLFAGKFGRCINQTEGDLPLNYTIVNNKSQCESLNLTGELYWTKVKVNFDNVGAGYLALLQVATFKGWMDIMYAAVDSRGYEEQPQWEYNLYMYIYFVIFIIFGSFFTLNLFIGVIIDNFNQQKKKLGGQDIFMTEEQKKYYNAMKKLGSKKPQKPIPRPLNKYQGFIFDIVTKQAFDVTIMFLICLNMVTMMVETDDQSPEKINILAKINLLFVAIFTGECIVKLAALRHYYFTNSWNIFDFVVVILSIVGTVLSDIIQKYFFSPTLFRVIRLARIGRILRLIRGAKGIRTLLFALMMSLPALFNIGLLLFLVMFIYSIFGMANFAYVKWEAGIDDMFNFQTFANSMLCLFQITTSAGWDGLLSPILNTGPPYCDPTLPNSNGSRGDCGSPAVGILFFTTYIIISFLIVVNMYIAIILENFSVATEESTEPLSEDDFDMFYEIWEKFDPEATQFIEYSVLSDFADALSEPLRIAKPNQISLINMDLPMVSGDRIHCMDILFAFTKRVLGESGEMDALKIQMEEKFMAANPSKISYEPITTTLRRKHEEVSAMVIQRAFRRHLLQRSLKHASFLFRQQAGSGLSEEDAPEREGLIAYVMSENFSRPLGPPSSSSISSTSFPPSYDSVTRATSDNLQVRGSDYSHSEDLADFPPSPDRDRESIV

IC50 [1] [nM] | SMILES | IC50 [2] [nM]
14 | N#Cc1cc(S(=O)(=O)Nc2ncns2)ccc1Oc1ccc(C(F)(F)F)cc1-c1cn[nH]c1 | –
120 | Cn1nccc1-c1cc(C(F)(F)F)ccc1-c1cccc2cc(S(=O)(=O)Nc3ncns3)ccc12 | > 30000
810 | O=S(=O)(Nc1ncns1)c1ccc2c(-c3ccc(C(F)(F)F)cc3O)cccc2c1 | –

Source: ChEMBL document CHEMBL3864175, “Sulfonamides as Selective NaV1.7 Inhibitors: Optimizing Potency and Pharmacokinetics to Enable in Vivo Target Engagement” (ACS Med Chem Lett, 2016)
